Legend:
[1] = biological target: fimbrial FimH^wt (Escherichia coli, UniProt P08191); settings: pre-treatment with 1% mannose or 50 μg/ml mAb (FIG. 4A)
[2] = biological target: T1, FimH (Escherichia coli, UniProt P08191); settings: open, low-affinity conformation; fimbrial FimH^wt; read-out: KD for mannose; cited from earlier work
T1 construct: rows headed: KD for mannose; fimbrial FimH^wt

[3] = biological target: FimH; settings: tightened, high-affinity conformation; read-out: KD for mannose; cited from earlier work

**Q.** Which “conversion of FimH^wt to the active conformation (mAb21 binding after pre-treatment)” value [1] does the source give for “α-methyl-D-mannopyranoside [mannose, reference compound]” here?
**A.** The value was “converts it from the inactive to the active conformation”.

**Q.** What about the Kd [2] of the same substance?
**A.** The Kd was 298 µM.

**Q.** And the Kd [3]?
**A.** Its Kd is 1.2 µM.

Source: patent US10722580B2, “Compositions and methods for treatment and prevention of uropathogenic E. coli infection” (UNIVERSITY OF WASHINGTON, priority 2015, dated 2020)
